Test results: PMC11272584 (Nature Metabolism, 2024)
Numbering of substitutions follows the chain as printed.

Legend:
GIPR A294V = target: T1, GIPR A294V (Homo sapiens, UniProt P48546, A294V); assay: cAMP accumulation; assay type: cell-based; design: host or cells: HEK293
T1 sequence (P48546 22-466 A294V): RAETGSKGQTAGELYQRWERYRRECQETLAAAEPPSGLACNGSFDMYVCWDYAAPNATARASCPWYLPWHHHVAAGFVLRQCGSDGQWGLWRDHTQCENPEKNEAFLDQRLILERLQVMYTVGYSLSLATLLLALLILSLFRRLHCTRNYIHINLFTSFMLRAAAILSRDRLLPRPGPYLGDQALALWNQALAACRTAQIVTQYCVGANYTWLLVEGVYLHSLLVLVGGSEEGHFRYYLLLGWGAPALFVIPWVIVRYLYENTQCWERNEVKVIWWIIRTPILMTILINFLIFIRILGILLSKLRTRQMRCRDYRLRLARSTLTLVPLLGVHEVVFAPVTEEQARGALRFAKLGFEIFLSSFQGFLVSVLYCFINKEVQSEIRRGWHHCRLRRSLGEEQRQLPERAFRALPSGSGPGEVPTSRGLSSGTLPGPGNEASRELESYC

GIPR Y73H = target: T2, GIPR Y73H (Homo sapiens, UniProt P48546, Y73H); assay: cAMP accumulation; assay type: cell-based; design: host or cells: HEK293
T2 sequence (P48546 22-466 Y73H): T1 sequence (P48546 22-466 A294V) with Y52H, V273A

GIPR R12Q = target: T3, GIPR R12Q (Homo sapiens, UniProt P48546); assay: cAMP accumulation; assay type: cell-based; design: host or cells: HEK293
T3 sequence (P48546 22-466): T1 sequence (P48546 22-466 A294V) with V273A

GIPR M67R = target: T4, GIPR M67R (Homo sapiens, UniProt P48546, M67R); assay: cAMP accumulation; assay type: cell-based; design: host or cells: HEK293
T4 sequence (P48546 22-466 M67R): T1 sequence (P48546 22-466 A294V) with M46R, V273A

GIPR L304R = target: T5, GIPR L304R (Homo sapiens, UniProt P48546, L304R); conditions: GIPR L304R (5.44), mean, n = 4, duplicate
T5 sequence (P48546 22-466 L304R): T1 sequence (P48546 22-466 A294V) with V273A, L283R

[1] = HEK293, GIP(1–42) 1 pM–100 nM, 30 min 37 °C, mean of n = 6
[2] = HEK293, Hill slope 1.0, mean of n = 6

glucose-dependent insulinotropic polypeptide [GIP]
cAMP (Emax) (GIPR A294V; HEK293, GIP(1–42) 1 pM–100 nM, 30 min 37 °C, mean of n = 3): 87 % of WT GIPR activity
logEC50 (cAMP) (GIPR A294V; HEK293, Hill slope 1.0, mean of n = 3): -10.6
cAMP (Emax) (GIPR Y73H; [1]): 15 % of WT GIPR activity
logEC50 (cAMP) (GIPR Y73H; [2]): -10.9
cAMP (Emax) (GIPR R12Q; [1]): 86 % of WT GIPR activity
logEC50 (cAMP) (GIPR R12Q; [2]): -11.4
cAMP (Emax) (GIPR M67R; HEK293, GIP(1–42) 1 pM–100 nM, 30 min 37 °C, mean of n = 4): 18 % of WT GIPR activity
logEC50 (cAMP) (GIPR M67R; HEK293, Hill slope 1.0, mean of n = 4): -10.4
logEC50 (Arrestin) (GIPR L304R; Hill slope 1.0): -9.4
Arrestin (Emax) (GIPR L304R; normalized to WT GIPR): 13
